The source of these data is ChEMBL document CHEMBL1127508, “Conformationally restricted competitive antagonists of human/rat corticotropin-releasing factor” (J Med Chem, 1994).

Test [1] addresses T1, Corticotropin-releasing factor receptor 1 (Rattus norvegicus) (UniProt P35353).
T1 sequence (whole entry): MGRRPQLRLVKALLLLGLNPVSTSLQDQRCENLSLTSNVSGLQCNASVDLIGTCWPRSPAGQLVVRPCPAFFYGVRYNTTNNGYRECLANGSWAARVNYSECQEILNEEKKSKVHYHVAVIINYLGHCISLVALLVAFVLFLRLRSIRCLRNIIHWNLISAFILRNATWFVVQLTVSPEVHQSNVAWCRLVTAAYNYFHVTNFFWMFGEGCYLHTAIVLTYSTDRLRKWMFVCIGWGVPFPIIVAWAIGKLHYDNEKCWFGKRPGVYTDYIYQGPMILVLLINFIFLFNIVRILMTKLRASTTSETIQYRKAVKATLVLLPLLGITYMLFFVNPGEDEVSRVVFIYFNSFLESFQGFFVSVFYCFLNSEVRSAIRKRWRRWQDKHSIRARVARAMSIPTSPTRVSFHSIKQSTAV
As to the kind of experiment: Relative antagonistic potency in vitro measuring alteration of CRF-induced release of ACTH by rat anterior pituitary cells in culture. In kind it is functional, cell-based. The conditions noted are these: Pituitary gland cell.

Test [2] has as its target T1, Corticotropin-releasing factor receptor 1 (Rattus norvegicus). Briefly: Intrinsic activity in ACTH release assay as percent CRF response. In kind it is functional.

Structures are written as SMILES.

With `CCCC[C@@H]1NC(=O)[C@@H](NC(=O)[C@H](CC(C)C)NC(=O)[C@@H](NC(=O)[C@H](CCC(=O)O)NC(=O)[C@H](CCCN=C(N)N)NC(=O)[C@H](CC(C)C)NC(=O)[C@H](CC(C)C)NC(=O)[C@H](Cc2c[nH]cn2)NC(=O)[C@H](N)Cc2ccccc2)C(C)C)CCC(=O)NCCCC[C@@H](C(=O)N[C@@H](CCC(N)=O)C(=O)N[C@@H](CC(C)C)C(=O)N[C@@H](C)C(=O)N[C@@H](CCC(N)=O)C(=O)N[C@@H](CCC(N)=O)C(=O)N[C@@H](C)C(=O)N[C@@H](Cc2c[nH]cn2)C(=O)N[C@@H](CO)C(=O)N[C@@H](CC(N)=O)C(=O)N[C@@H](CCCN=C(N)N)C(=O)N[C@@H](CCCCN)C(=O)N[C@@H](CC(C)C)C(=O)N[C@@H](CCCC)C(=O)N[C@@H](CCC(=O)O)C(=O)N[C@H](C(=O)N[C@H](C(=O)C(N)=O)[C@@H](C)CC)[C@@H](C)CC)NC(=O)[C@H](C)NC(=O)[C@H](CCCN=C(N)N)NC(=O)[C@H](C)NC1=O`, the Activity in test [1] was determined as 0.05. Moreover, in test [2], the Intrinsic activity was determined as 25.
